# In ChEMBL document CHEMBL6134906, “Design, Synthesis, and Biological Evaluation of Selective STING Synergists That Enhance cGAMP-STING Pathway Activation without Inherent Agonist Activity” (J Med Chem, 2025):
# Tests used:
# [1] = Toxicity in male C57BL/6 mouse assessed as inflammatory infiltration at 100 mg/kg, ip administered for 7 days by H and E staining based analysis; assay type: organism-based; conditions: in vivo, 168 h, time 7 day
# [2] = Cytotoxicity against human PBMC cells assessed as increase in IFN-beta mRNA level at 25 uM incubated for 4 hrs in presence of cGAMP by RT-qPCR analysis; assay type: toxicity, cell-based
# [3] = Toxicity in male C57BL/6 mouse assessed as blood urea nitrogen level at 100 mg/kg, ip administered for 7 days by biochemical analysis (reference value: 6.9 mmol/L); assay type: organism-based; conditions: in vivo, 168 h, time 7 day
# [4] = target: T1, Stimulator of interferon genes protein (Mus musculus) (UniProt Q3TBT3); test: Agonist activity at mouse STING expressed in HEK293 cells assessed as SEAP production at 100 uM incubated for 48 hrs by QUANTI-Blue solution based spectrophotometric analysis; assay type: cell-based
# T1 sequence (whole entry): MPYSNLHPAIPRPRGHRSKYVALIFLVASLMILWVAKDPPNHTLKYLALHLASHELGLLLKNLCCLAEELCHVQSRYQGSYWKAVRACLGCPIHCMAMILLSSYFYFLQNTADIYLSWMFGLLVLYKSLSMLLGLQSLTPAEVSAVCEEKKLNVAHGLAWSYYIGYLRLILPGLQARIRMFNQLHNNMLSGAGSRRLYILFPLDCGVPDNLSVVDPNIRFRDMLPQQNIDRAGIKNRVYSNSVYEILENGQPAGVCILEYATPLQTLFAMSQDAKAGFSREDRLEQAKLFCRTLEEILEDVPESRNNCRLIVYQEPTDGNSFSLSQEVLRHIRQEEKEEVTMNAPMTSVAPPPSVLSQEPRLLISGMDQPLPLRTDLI
# [5] = Toxicity in male C57BL/6 mouse model implanted with mouse B16-F10 cells assessed as effect on body weight at 20 mg/kg, ip co-administered with cGAMP on days 7, 10 and 13; assay type: organism-based; conditions: in vivo, 168 h, time 7 day
# [6] = Toxicity in male C57BL/6 mouse assessed as aspartate aminotransferase level at 20 mg/kg, ip administered for 7 days by biochemical analysis (reference value: 136.8 U/L); assay type: organism-based; conditions: in vivo, 168 h, time 7 day
# [7] = target: T1, Stimulator of interferon genes protein (Mus musculus); test: Potentiation of MSA-2-induced mouse STING pathway activation expressed in HEK293 cells assessed as SEAP production at 50 uM incubated for 48 hrs by QUANTI-Blue solution based spectrophotometric analysis; assay type: cell-based; conditions: filed as agonist
# [8] = Toxicity in male C57BL/6 mouse assessed as uric acid level at 100 mg/kg, ip administered for 7 days by biochemical analysis (reference value: 0.13 mmol/L); assay type: organism-based; conditions: in vivo, 168 h, time 7 day
# [9] = Toxicity in male C57BL/6 mouse assessed as aspartate aminotransferase level at 100 mg/kg, ip administered for 7 days by biochemical analysis (reference value: 136.8 U/L); assay type: organism-based; conditions: in vivo, 168 h, time 7 day
# [10] = Toxicity in male C57BL/6 mouse assessed as creatine kinase level at 100 mg/kg, ip administered for 7 days by biochemical analysis (reference value: 312.6 U/L); assay type: organism-based; conditions: in vivo, 168 h, time 7 day
# HEK293 = test: Cytotoxicity against human HEK293 cells expressing human STING assessed as reduction in cell viability at 100 uM incubated for 48 hrs by CellTiter Glo luminescent cell viability assay; assay type: toxicity, cell-based; conditions: hek293, 48 h
# [11] = Toxicity in male C57BL/6 mouse assessed as uric acid level at 20 mg/kg, ip administered for 7 days by biochemical analysis (reference value: 0.13 mmol/L); assay type: organism-based; conditions: in vivo, 168 h, time 7 day
# [12] = Toxicity in male C57BL/6 mouse assessed as effect on heart architecture at 20 to 100 mg/kg, ip administered for 7 days by H and E staining based analysis; assay type: organism-based; conditions: in vivo, 168 h, dose 20-100 mg/kg, time 7 day
# [13] = Toxicity in male C57BL/6 mouse assessed as creatine kinase level at 20 mg/kg, ip administered for 7 days by biochemical analysis (reference value: 312.6 U/L); assay type: organism-based; conditions: in vivo, 168 h, time 7 day
# [14] = Toxicity in male C57BL/6 mouse assessed as effect on lung architecture at 20 to 100 mg/kg, ip administered for 7 days by H and E staining based analysis; assay type: organism-based; conditions: in vivo, 168 h, dose 20-100 mg/kg, time 7 day
# [15] = Toxicity in male C57BL/6 mouse assessed as CK-MB level at 20 mg/kg, ip administered for 7 days by biochemical analysis (reference value: 203.2 U/L); assay type: organism-based; conditions: in vivo, 168 h, time 7 day
# [16] = Cytotoxicity against human PBMC cells assessed as reduction in cell viability at 25 uM incubated for 24 hrs in presence of cGAMP by CellTiter-Glo assay; assay type: toxicity, cell-based
# [17] = Toxicity in male C57BL/6 mouse assessed as effect on lung weight at 20 to 100 mg/kg, ip administered for 7 days; assay type: organism-based; conditions: in vivo, 168 h, dose 20-100 mg/kg, time 7 day
# [18] = Toxicity in male C57BL/6 mouse assessed as effect on body weight at 20 to 100 mg/kg, ip administered for 7 days; assay type: organism-based; conditions: in vivo, 168 h, dose 20-100 mg/kg, time 7 day
# [19] = Toxicity in male C57BL/6 mouse assessed as alkaline phosphatase level at 20 mg/kg, ip administered for 7 days by biochemical analysis (reference value: 268.4 U/L); assay type: organism-based; conditions: in vivo, 168 h, time 7 day
# [20] = Toxicity in male C57BL/6 mouse assessed as effect on kidney weight at 20 to 100 mg/kg, ip administered for 7 days; assay type: organism-based; conditions: in vivo, 168 h, dose 20-100 mg/kg, time 7 day
# [21] = Toxicity in male C57BL/6 mouse assessed as CK-MB level at 100 mg/kg, ip administered for 7 days by biochemical analysis (reference value: 203.2 U/L); assay type: organism-based; conditions: in vivo, 168 h, time 7 day
# [22] = Toxicity in male C57BL/6 mouse assessed as effect on kidney architecture at 20 to 100 mg/kg, ip administered for 7 days by H and E staining based analysis; assay type: organism-based; conditions: in vivo, 168 h, dose 20-100 mg/kg, time 7 day
# [23] = target: T1, Stimulator of interferon genes protein (Mus musculus); test: Potentiation of cGAMP-induced mouse STING pathway activation expressed in HEK293 cells assessed as leftward shift in cGAMP agonist curve at 33 to 100 uM incubated for 48 hrs by QUANTI-Blue solution based spectrophotometric analysis; assay type: cell-based; conditions: filed as agonist, dose 33-100 µM
# [24] = target: T1, Stimulator of interferon genes protein (Mus musculus); test: Potentiation of SR717-induced mouse STING pathway activation expressed in HEK293 cells assessed as SEAP production at 50 uM incubated for 48 hrs by QUANTI-Blue solution based spectrophotometric analysis; assay type: cell-based; conditions: filed as agonist
# [25] = Toxicity in male C57BL/6 mouse assessed as effect on liver architecture at 20 to 100 mg/kg, ip administered for 7 days by H and E staining based analysis; assay type: organism-based; conditions: in vivo, 168 h, dose 20-100 mg/kg, time 7 day
# [26] = target: T1, Stimulator of interferon genes protein (Mus musculus); test: Potentiation of DMXAA-induced mouse STING pathway activation expressed in HEK293 cells assessed as SEAP production at 50 uM incubated for 48 hrs by QUANTI-Blue solution based spectrophotometric analysis; assay type: cell-based
# [27] = Toxicity in male C57BL/6 mouse assessed as blood urea nitrogen level at 20 mg/kg, ip administered for 7 days by biochemical analysis (reference value: 6.9 mmol/L); assay type: organism-based; conditions: in vivo, 168 h, time 7 day
# [28] = Toxicity in male C57BL/6 mouse assessed as effect on behavior at 20 to 100 mg/kg, ip administered for 7 days; assay type: organism-based; conditions: in vivo, 168 h, dose 20-100 mg/kg, time 7 day
# [29] = Toxicity in male C57BL/6 mouse model implanted with mouse B16-F10 cells assessed as effect on body weight at 20 mg/kg, ip administered on days 7, 10 and 13; assay type: organism-based; conditions: in vivo, 168 h, time 7 day
smiles,measurement,setting,value
CCOC(=O)Cn1c2ccc(C)cc2c(=O)c2cc(OC)c(C)c(C)c21,Activity,[1],Non-toxic
same,Activity,[2],Toxic
same,Activity,[3],7.3 mmol/L
same,Activity,[4],inactive
same,Activity,[5],Non-toxic
same,Activity,[6],148.4 U/L
same,Activity,[7],Active
same,Activity,[8],0.19 mmol/L
same,Activity,[9],142.8 U/L
same,Activity,[10],327.2 U/L
same,Activity,HEK293,Non-toxic
same,Activity,[11],0.13 mmol/L
same,Activity,[12],Non-toxic
same,Activity,[13],324.4 U/L
same,Activity,[14],Non-toxic
same,Activity,[15],192.2 U/L
same,Activity,[16],Non-toxic
same,Activity,[17],Non-toxic
same,Activity,[18],Non-toxic
same,Activity,[19],260.8 U/L
same,Activity,[20],Non-toxic
same,Activity,[21],213.6 U/L
same,Activity,[22],Non-toxic
same,Activity,[23],Active
same,Activity,[24],Active
same,Activity,[25],Non-toxic
same,Activity,[26],inactive
same,Activity,[27],7.4 mmol/L
same,Activity,[28],Non-toxic
same,Activity,[29],Non-toxic

# Activity calls are given as the source filed them. The calls are words filed in the database; no cut-off is given here.
